Results published in US10039753B2, “Imidazo[4,5-c]quinoline and imidazo[4,5-c][1,5]naphthyridine derivatives as LRRK2 inhibitors” (Pfizer Inc., priority 2015, dated 2018).

Amino acid sequences for entries named in this document (tags omitted). Residues count along the entry.
UniProt Q5S007, 970-2527 limits assumed: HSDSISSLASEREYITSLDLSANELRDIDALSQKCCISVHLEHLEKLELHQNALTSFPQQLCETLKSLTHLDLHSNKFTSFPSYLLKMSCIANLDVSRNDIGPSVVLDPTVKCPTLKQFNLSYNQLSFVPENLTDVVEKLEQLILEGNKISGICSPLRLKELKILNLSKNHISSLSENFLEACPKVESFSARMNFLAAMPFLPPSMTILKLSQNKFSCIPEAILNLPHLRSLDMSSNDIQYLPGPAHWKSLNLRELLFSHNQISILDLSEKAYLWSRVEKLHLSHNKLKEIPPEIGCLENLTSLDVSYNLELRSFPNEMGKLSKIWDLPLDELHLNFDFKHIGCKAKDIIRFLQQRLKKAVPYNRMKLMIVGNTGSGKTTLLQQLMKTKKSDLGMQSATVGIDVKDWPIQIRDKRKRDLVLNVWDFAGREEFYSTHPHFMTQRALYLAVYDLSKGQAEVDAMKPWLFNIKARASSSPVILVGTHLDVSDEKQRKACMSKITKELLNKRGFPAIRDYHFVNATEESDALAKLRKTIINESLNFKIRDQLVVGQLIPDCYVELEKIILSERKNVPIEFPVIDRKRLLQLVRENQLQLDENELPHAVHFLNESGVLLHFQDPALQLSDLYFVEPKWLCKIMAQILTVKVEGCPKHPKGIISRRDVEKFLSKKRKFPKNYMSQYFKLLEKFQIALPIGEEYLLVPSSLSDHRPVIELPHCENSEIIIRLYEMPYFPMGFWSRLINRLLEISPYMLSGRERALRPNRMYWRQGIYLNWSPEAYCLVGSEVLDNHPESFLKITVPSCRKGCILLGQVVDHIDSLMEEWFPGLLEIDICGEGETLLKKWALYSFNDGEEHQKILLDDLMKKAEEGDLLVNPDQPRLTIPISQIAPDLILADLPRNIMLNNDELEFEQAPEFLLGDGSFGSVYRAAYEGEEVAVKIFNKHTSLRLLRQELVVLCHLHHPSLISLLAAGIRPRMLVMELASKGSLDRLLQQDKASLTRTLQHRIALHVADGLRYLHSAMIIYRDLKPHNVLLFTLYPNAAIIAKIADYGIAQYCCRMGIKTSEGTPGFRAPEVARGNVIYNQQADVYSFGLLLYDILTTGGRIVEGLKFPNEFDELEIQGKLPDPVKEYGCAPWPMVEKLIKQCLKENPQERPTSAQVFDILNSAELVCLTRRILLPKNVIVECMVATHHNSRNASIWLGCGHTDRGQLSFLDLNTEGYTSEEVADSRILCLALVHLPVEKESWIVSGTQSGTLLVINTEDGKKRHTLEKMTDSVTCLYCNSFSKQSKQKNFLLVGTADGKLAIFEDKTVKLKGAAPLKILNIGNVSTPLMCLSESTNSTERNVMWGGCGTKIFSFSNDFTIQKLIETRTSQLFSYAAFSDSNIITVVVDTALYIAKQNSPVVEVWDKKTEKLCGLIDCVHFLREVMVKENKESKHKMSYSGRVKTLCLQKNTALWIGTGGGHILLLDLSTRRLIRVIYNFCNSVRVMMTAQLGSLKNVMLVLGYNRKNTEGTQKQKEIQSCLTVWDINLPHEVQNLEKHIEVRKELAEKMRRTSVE
UniProt Q5S007, 970-2527 G2019S limits assumed: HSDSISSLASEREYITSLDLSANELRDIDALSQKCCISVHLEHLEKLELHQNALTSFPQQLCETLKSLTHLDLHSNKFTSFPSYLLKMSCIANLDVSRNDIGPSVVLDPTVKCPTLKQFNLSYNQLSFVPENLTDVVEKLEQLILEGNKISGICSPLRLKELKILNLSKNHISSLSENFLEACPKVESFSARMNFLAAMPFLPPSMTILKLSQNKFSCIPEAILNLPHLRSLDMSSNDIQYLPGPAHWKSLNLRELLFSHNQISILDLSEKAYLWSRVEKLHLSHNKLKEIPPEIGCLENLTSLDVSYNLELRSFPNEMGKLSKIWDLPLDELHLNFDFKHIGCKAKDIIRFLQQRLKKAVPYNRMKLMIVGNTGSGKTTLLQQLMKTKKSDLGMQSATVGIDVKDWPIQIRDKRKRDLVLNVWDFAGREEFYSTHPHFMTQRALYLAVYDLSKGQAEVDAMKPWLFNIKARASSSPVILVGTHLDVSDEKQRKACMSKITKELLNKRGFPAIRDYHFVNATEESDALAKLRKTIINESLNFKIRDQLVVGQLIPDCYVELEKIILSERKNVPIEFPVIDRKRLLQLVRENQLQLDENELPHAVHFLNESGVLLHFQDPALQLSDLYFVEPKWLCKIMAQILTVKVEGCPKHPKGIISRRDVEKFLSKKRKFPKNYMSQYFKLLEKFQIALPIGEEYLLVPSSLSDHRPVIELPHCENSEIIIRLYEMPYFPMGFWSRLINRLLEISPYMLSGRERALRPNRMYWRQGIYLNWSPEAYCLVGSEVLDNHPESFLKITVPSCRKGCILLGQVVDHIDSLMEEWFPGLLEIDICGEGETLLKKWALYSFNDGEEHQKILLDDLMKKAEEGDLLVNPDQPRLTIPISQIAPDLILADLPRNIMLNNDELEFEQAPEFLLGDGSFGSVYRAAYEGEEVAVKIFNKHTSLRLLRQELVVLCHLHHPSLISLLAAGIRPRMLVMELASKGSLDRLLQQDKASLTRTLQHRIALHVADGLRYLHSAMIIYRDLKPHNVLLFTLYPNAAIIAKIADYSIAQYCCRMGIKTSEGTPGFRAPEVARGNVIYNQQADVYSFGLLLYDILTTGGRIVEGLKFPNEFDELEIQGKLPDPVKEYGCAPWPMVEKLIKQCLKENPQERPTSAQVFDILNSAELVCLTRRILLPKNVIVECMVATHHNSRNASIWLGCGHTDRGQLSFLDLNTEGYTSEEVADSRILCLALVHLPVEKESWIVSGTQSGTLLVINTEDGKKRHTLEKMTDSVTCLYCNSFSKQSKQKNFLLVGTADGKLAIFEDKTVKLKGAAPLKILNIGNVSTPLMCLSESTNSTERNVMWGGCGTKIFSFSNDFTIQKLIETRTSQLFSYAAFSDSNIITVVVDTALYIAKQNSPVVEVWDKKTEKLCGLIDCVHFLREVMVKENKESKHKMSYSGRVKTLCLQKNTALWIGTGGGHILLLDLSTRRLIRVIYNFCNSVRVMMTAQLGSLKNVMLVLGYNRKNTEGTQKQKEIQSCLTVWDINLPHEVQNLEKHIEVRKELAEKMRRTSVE

Key:
[1] = molecular target: T1, GST-tagged truncated LRRK2 (Homo sapiens, UniProt Q5S007); assay: LRRK2 Assay, Format 1 (Lantha Screen), WT; format: biochemical; details: geometric mean of 2-4 determinations unless otherwise indicated
T1 construct: GST-tagged truncated LRRK2 from Invitrogen (Cat # PV4874); GST; purchased Invitrogen PV4874
Procedure: LRRK2 kinase activity was measured using Lantha Screen technology from Invitrogen. GST-tagged truncated LRRK2 from Invitrogen (Cat # PV4874) was incubated with a fluorescein-labeled peptide substrate based upon ezrin/radixin/moesin (ERM), also known as LRRKtide (Invitrogen cat # PR8976A), in the presence of a dose response of compound. Upon completion, the assay was stopped and detected with a terbium labeled anti-phospho-ERM antibody (Invitrogen, cat # PR8975A). […] Aliquots (3.5 μL) of the 100% DMSO dose response were mixed with 46.5 μL water then 1 μL of this mixture was added to the 3 μL substrate mix in the 384-well plate. The kinase reaction was started with 3 μL of a working solution of LRRK2 enzyme at a concentration of 4 μg/mL. […] The reaction was allowed to progress at room temperature for two hours and then stopped with the addition of 7 μL of detection buffer (20 mM Tris pH 7.6, 0.01% NP-40, 0.02% NaN3, 6 mM EDTA with 2 nM terbium labeled anti-phospho-ERM).

[2] = molecular target: T1, GST-tagged truncated LRRK2; assay: LRRK2 Assay, Format 2 (Lantha Screen), WT; format: biochemical; details: geometric mean of 2-4 determinations unless otherwise indicated (a: >=5; b: single determination)
Procedure: (§1) LRRK2 kinase activity was measured using Lantha Screen technology from Invitrogen. GST-tagged truncated LRRK2 from Invitrogen (Cat # PV4874) was incubated with a fluorescein-labeled peptide substrate based upon ezrin/radixin/moesin (ERM), also known as LRRKtide (Invitrogen cat # PR8976A), in the presence of a dose response of compound. Upon completion, the assay was stopped and detected with a terbium labeled anti-phospho-ERM antibody (Invitrogen, cat # PR8975A). […] Using Echo acoustic dispensing, 60 nL of compound was transferred to a low volume Corning 384-well assay plate. 3 μL of a working solution of substrate (200 nM LRRKtide, […]) prepared in assay buffer (50 mM HEPES, pH 7.5, 3 mM MgCl2, with 2 mM DTT and 0.01% Brij35 added fresh) was added to the 60 nL compound assay plate. The kinase reaction was started with […] of a working solution of LRRK2 enzyme at a concentration of […]. The final reaction concentrations were 100 nM LRRKtide, […], […] LRRK2 enzyme and a compound dose response with a top dose of 3 mM. The reaction was allowed to progress at room temperature for 30 minutes and then stopped with the addition of […] of detection buffer (20 mM Tris pH 7.6, 0.01% NP-40, 6 mM EDTA with 2 nM terbium labeled anti-phospho-ERM). After an incubation of 1 hour at room temperature, the plate was read on an Envision with an excitation wavelength of 340 nm and a reading emission at both 520 nm and 495 nm. The ratio of the 520 nm and 495 nm emission was used to analyze the data. Inhibition of mutant G2019S LRRK2 (Invitrogen cat # PV4881) was measured in the exact same method. All final concentrations of substrate ATP and enzyme were the same.

[3] = molecular target: T2, mutant G2019S LRRK2 (Homo sapiens, UniProt Q5S007, G2019S); assay: LRRK2 Assay, Format 2 (Lantha Screen), G2019S mutant; format: biochemical; set-up: purchased Invitrogen PV4881; details: geometric mean of 2-4 determinations unless otherwise indicated (a: >=5; b: single determination)
Procedure: as §1

[4] = molecular target: T2, mutant G2019S LRRK2; assay: LRRK2 Assay, Format 1 (Lantha Screen), G2019S mutant
[5] = test system: kinase selectivity mini-panel; assay: Kinase selectivity (mini-panel), further assay run, Table 5A; format: biochemical; details: 1 mM ATP, 1 μM drug concentration; for percent inhibition of ABL: kinase ABL; for percent inhibition of AKT: kinase AKT; for percent inhibition of AURA: kinase AURA; for percent inhibition of BTK: kinase BTK; for percent inhibition of CDK2_CyclinA: kinase CDK2_CyclinA; for percent inhibition of CHK1: kinase CHK1; for percent inhibition of CHK2: kinase CHK2; for percent inhibition of CKIIa′: kinase CKIIa′; for percent inhibition of CKIa: kinase CKIa; for percent inhibition of CaMKIIa: kinase CaMKIIa; for percent inhibition of EGFR: kinase EGFR; for percent inhibition of ERK2: kinase ERK2; for percent inhibition of EphA2: kinase EphA2; for percent inhibition of FGFR1: kinase FGFR1; for percent inhibition of GSK3b: kinase GSK3b; for percent inhibition of HGFR: kinase HGFR; for percent inhibition of IRAK4: kinase IRAK4; for percent inhibition of IRK: kinase IRK; for percent inhibition of JAK3: kinase JAK3; for percent inhibition of KDR (VEGF): kinase KDR (VEGF); for percent inhibition of LCK: kinase LCK; for percent inhibition of MARK1: kinase MARK1; for percent inhibition of MK2: kinase MK2; for percent inhibition of MLCK_sk: kinase MLCK_sk; for percent inhibition of MST2: kinase MST2; for percent inhibition of MST4: kinase MST4; for percent inhibition of PAK4: kinase PAK4; for percent inhibition of PDK1: kinase PDK1; for percent inhibition of PIM2: kinase PIM2; for percent inhibition of PKACa: kinase PKACa; for percent inhibition of PRKCB2: kinase PRKCB2; for percent inhibition of ROCKI: kinase ROCKI; for percent inhibition of SGK: kinase SGK; for percent inhibition of SRC: kinase SRC; for percent inhibition of TAO2: kinase TAO2; for percent inhibition of TIE2: kinase TIE2; for percent inhibition of TRKA: kinase TRKA; for percent inhibition of ZC1 (HGK): kinase ZC1 (HGK); for percent inhibition of p38: kinase p38
Procedure: The compounds were run using a commercially available kinase selectivity assay which is available from CarnaBio USA, Inc. 209 West Central St., Suite 307, Natick, Mass. 01760 USA. The compounds of Examples 3, 4, 5 and 22 were run in the assay at a concentration of 1 μM using an ATP concentration of 1 mM. Table 5A below provides kinase selectivity from a further assay run for the compounds of Examples 4, 11, 5, 104, 102 and 116.

SMILES: C[C@@H]1C[C@H](n2c(Cc3cn(C)nn3)nc3cnc4ccc(Cl)cc4c32)CCO1 [Example 107, 8-Chloro-1-[(2R,4R)-2-methyltetrahydro-2H-pyran-4-yl]-2-[(1-methyl-1H-1,2,3-triazol-4-yl)methyl]-1H-imidazo[4,5-c]quinoline]
- IC50 [1]: 2.03 nM
- IC50 [2]: 6.08 nM
- IC50 [3]: 5.76 nM
- IC50 [4]: 1.89 nM

SMILES: Cc1cn(Cc2nc3cnc4ccc(C#N)cc4c3n2[C@@H]2CCO[C@H](C)C2)nn1 [Example 106, 1-[(2R,4R)-2-Methyltetrahydro-2H-pyran-4-yl]-2-[(4-methyl-1H-1,2,3-triazol-1-yl)methyl]-1H-imidazo[4,5-c]quinoline-8-carbonitrile]
- IC50 [1]: 3.24 nM
- IC50 [2]: 11.6 nM
- IC50 [3]: 11.8 nM
- IC50 [4]: 2.14 nM

SMILES: Cc1cnc(Cc2nc3cnc4ccc(Cl)cc4c3n2[C@@H]2CCO[C@H](C)C2)cn1 [Example 104, 8-Chloro-2-[(5-methylpyrazin-2-yl)methyl]-1-[(2R,4R)-2-methyltetrahydro-2H-pyran-4-yl]-1H-imidazo[4,5-c]quinoline]
- IC50 [2]: 7 nM
- percent inhibition of ABL [5]: −6.38%
- percent inhibition of AKT [5]: −2.7%
- percent inhibition of AURA [5]: 1.41%
- percent inhibition of BTK [5]: −8.43%
- percent inhibition of CDK2_CyclinA [5]: −1.29%
- percent inhibition of CHK1 [5]: 1.3%
- percent inhibition of CHK2 [5]: −4.6%
- percent inhibition of CKIIa′ [5]: −0.31%
- percent inhibition of CKIa [5]: −2.89%
- percent inhibition of CaMKIIa [5]: −0.6%
- percent inhibition of EGFR [5]: −3.75%
- percent inhibition of ERK2 [5]: −2.07%
- percent inhibition of EphA2 [5]: −10.43%
- percent inhibition of FGFR1 [5]: 17.09%
- percent inhibition of GSK3b [5]: −4.34%
- percent inhibition of HGFR [5]: −5.38%
- percent inhibition of IRAK4 [5]: −7.15%
- percent inhibition of IRK [5]: −2.45%
- percent inhibition of JAK3 [5]: 17.09%
- percent inhibition of KDR (VEGF) [5]: 12.2%
- percent inhibition of LCK [5]: 1.74%
- percent inhibition of MARK1 [5]: −2.65%
- percent inhibition of MK2 [5]: −3.44%
- percent inhibition of MLCK_sk [5]: −3.75%
- percent inhibition of MST2 [5]: 10.18%
- percent inhibition of MST4 [5]: −3.83%
- percent inhibition of PAK4 [5]: −3.01%
- percent inhibition of PDK1 [5]: −5.16%
- percent inhibition of PIM2 [5]: −6.6%
- percent inhibition of PKACa [5]: −1.49%
- percent inhibition of PRKCB2 [5]: 1.13%
- percent inhibition of ROCKI [5]: −0.53%
- percent inhibition of SGK [5]: −2.75%
- percent inhibition of SRC [5]: −1.31%
- percent inhibition of TAO2 [5]: −4.56%
- percent inhibition of TIE2 [5]: −3.92%
- percent inhibition of TRKA [5]: 17.66%
- percent inhibition of ZC1 (HGK) [5]: −5.31%
- percent inhibition of p38 [5]: −1.52%
- IC50 [3]: 6.14 nM

SMILES: Cc1nnc(Cc2nc3cnc4ccc(Cl)cc4c3n2[C@@H]2CCO[C@H](C)C2)s1 [Example 116, 8-Chloro-1-[(2R,4R)-2-methyltetrahydro-2H-pyran-4-yl]-2-[(5-methyl-1,3,4-thiadiazol-2-yl)methyl]-1H-imidazo[4,5-c]quinoline]
- IC50 [2]: 6.2 nM
- percent inhibition of ABL [5]: −8.45%
- percent inhibition of AKT [5]: 3%
- percent inhibition of AURA [5]: 8.57%
- percent inhibition of BTK [5]: −0.86%
- percent inhibition of CDK2_CyclinA [5]: 7.76%
- percent inhibition of CHK1 [5]: 9.11%
- percent inhibition of CHK2 [5]: 0.39%
- percent inhibition of CKIIa′ [5]: 1.67%
- percent inhibition of CKIa [5]: 4.68%
- percent inhibition of CaMKIIa [5]: 8.8%
- percent inhibition of EGFR [5]: 4.03%
- percent inhibition of ERK2 [5]: 10.33%
- percent inhibition of EphA2 [5]: 5.08%
- percent inhibition of FGFR1 [5]: 23.36%
- percent inhibition of GSK3b [5]: 2.43%
- percent inhibition of HGFR [5]: −2.04%
- percent inhibition of IRAK4 [5]: 11.9%
- percent inhibition of IRK [5]: 3.5%
- percent inhibition of JAK3 [5]: 5.86%
- percent inhibition of KDR (VEGF) [5]: 24.23%
- percent inhibition of LCK [5]: 0.41%
- percent inhibition of MARK1 [5]: 1.61%
- percent inhibition of MK2 [5]: 7.5%
- percent inhibition of MLCK_sk [5]: 5.97%
- percent inhibition of MST2 [5]: 24.53%
- percent inhibition of MST4 [5]: 8.69%
- percent inhibition of PAK4 [5]: 4.02%
- percent inhibition of PDK1 [5]: 5.49%
- percent inhibition of PIM2 [5]: 5.63%
- percent inhibition of PKACa [5]: −0.26%
- percent inhibition of PRKCB2 [5]: 22.9%
- percent inhibition of ROCKI [5]: 3.61%
- percent inhibition of SGK [5]: 3.22%
- percent inhibition of SRC [5]: 5.44%
- percent inhibition of TAO2 [5]: 6.14%
- percent inhibition of TIE2 [5]: 7.08%
- percent inhibition of TRKA [5]: 14.91%
- percent inhibition of ZC1 (HGK) [5]: −1.13%
- percent inhibition of p38 [5]: 13.76%
- IC50 [3]: 5.57 nM
